The values that follow come from PMC6933782 (ACS Omega, 2019).

By UniProt entry, the sequences of proteins in these tests, tags left out.
UniProt P30989, whole entry: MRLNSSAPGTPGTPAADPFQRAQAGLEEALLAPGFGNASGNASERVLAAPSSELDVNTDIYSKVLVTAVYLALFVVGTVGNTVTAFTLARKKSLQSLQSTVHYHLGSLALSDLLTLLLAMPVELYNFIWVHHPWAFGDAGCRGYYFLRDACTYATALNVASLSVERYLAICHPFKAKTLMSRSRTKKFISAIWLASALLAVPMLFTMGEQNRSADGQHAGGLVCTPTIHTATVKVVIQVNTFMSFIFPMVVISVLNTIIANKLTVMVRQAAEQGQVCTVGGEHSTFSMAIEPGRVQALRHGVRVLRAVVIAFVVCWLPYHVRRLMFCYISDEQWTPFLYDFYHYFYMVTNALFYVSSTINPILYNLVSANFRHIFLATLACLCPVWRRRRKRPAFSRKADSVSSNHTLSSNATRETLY

The target of series [1] is neurotensin receptor 1 (human (endogenous in HT-29)) (UniProt P30989). Briefly: radioligand binding.
For series [2], the system named is normal BALB/c mice. Briefly: PET imaging / biodistribution in normal BALB/c mice. Format: in vivo, BALB/c mouse.

What is called IC50 is the concentration that inhibits the measured activity by half. A higher IC50 goes with weaker potency in that assay. The substance “natGa-labeled neurotensin NT(8–13) (peptide)” displayed an IC50 in series [1] of 0.04 nM.

On to “^64Cu-labeled HSA 10: human serum albumin azo coupled with ^64Cu-labeled NOTA-diazonium salt 5”, for which, in series [2] (5 MBq i.v.), the biodistribution profile result is listed as “characteristic for a blood pool marker”; the “uptake in PET” value was “uptake in the heart and arteries”. Also, in series [2] (24 h postinjection), the liver metabolism result is recorded as “liver metabolism 24 h postinjection”. In series [2] (up to stated time postinjection), the “retention of uptake in the heart and arteries” value was “up to 2 h”.

On to neurotensin NT(8–13) (peptide), for which the IC50 in series [1] is 0.03 nM.
